Data: ChEMBL document CHEMBL1131033, “Selective endothelin A receptor antagonists. 4. Discovery and structure-activity relationships of stilbene acid and alcohol derivatives” (J Med Chem, 1998)

The chains behind the UniProt entries cited, without tags or fusion partners.
UniProt P26684, whole entry: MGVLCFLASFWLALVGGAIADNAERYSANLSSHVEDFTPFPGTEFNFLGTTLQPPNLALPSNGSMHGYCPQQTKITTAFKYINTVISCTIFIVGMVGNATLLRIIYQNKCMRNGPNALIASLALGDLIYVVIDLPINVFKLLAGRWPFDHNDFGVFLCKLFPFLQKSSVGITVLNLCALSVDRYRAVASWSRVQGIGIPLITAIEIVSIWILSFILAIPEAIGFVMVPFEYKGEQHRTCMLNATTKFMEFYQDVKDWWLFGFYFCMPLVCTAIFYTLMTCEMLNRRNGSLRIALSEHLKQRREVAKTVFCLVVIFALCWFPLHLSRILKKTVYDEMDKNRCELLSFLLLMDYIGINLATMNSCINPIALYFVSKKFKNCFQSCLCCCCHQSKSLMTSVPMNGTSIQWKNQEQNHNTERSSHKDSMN

Molecular target: Endothelin-1 receptor (Rattus norvegicus, UniProt P26684)
Assay: Concentration required to inhibit 50% Et-1 binding to endothelin A receptor in rat A-10 cells.
Assay type: cell-based, A10
How it was run: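 Rat aortic smooth muscle A10 cells grown to confluence in DMEM with 10% FBS, harvested, and frozen. Nonspecific binding defined with 500 nM unlabeled ET-1. Bound ligand separated by vacuum filtration and gamma-counted. IC50 from curve fitting, usually in duplicate.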

| Compound | IC50 [nM] |
| --- | --- |
| OC/C(=C/c1cccc(OCc2ccccc2)c1)c1ccccc1 | 20000 |
| O=C(O)CCC(C(=O)c1cccc(OCc2ccccc2)c1)c1ccccc1 (stereo not drawn) | 1000 |
| O=C(O)/C(=C/c1cc(OCc2ccccc2)ccc1[N+](=O)[O-])c1ccccc1F | 900 |
